This passage reports Emax results from ChEMBL document CHEMBL4028888, “Design of MC1R Selective γ-MSH Analogues with Canonical Amino Acids Leads to Potency and Pigmentation” (J Med Chem, 2017).

Amino acid sequences for entries named in this document (tags omitted).
UniProt P32245, whole entry: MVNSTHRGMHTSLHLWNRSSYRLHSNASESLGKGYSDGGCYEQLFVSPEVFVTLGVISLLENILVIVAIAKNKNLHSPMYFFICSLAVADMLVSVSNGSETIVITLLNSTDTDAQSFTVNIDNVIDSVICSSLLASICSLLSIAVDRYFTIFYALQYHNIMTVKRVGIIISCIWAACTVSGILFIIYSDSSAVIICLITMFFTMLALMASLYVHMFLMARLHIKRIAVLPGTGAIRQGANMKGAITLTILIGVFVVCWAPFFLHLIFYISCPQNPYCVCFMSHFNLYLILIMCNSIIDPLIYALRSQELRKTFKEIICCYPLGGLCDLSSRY

The test deals with Melanocortin receptor 4 (Homo sapiens, UniProt P32245). Briefly: Agonist activity at human MC4R expressed in HEK293 cells assessed as induction of intracellular cAMP accumulation at 10 uM after 3 mins relative to MT-2. The test is classed as cell-based. The conditions noted are these: 0.05 h, read-out: %max. On the technique in general: cAMP levels reflect the balance of adenylyl cyclase and phosphodiesterase activity.

For the compound `CCCC[C@H](NC(=O)[C@@H](NC(=O)[C@@H](N)Cc1ccc(O)cc1)C(C)C)C(=O)NCC(=O)N[C@@H](Cc1c[nH]cn1)C(=O)N[C@H](Cc1ccc2ccccc2c1)C(=O)N[C@@H](CCCN=C(N)N)C(=O)NC(Cc1c[nH]c2ccccc12)C(=O)N[C@@H](CC(=O)O)C(=O)N[C@@H](CCCN=C(N)N)C(=O)N[C@@H](Cc1ccccc1)C(=O)NCC(N)=O` (stereo in doubt), the Emax at 10 µM amounted to 18%.
